Values quoted from earlier work as cited in patent US9757461B2, “GnRH analogue formulations” (CAMURUS AB, priority 2005, dated 2017).

Settings: native GLP-1

**Q.** Which Plasma half-life does the source give for GLP-1 here?
**A.** Its Plasma half-life is “below 2 minutes”.
